Assay results as given in ChEMBL document CHEMBL1125222, “Activity of N6-substituted 2-chloroadenosines at A1 and A2 adenosine receptors” (J Med Chem, 1991).

Sequences of proteins named here, by UniProt entry; tags and fusion partners are left off. A change or cut given only in a name is not applied to a line headed by its entry.
UniProt P29276: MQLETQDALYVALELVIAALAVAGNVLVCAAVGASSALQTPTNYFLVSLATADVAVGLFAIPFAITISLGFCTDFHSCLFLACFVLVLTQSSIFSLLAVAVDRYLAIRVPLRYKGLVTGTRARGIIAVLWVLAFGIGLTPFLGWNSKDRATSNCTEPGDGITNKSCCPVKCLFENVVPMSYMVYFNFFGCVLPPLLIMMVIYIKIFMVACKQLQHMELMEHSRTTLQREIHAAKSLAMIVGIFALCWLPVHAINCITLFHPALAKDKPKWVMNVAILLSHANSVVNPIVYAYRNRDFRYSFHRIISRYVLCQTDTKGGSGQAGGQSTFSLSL
UniProt P30543, whole entry: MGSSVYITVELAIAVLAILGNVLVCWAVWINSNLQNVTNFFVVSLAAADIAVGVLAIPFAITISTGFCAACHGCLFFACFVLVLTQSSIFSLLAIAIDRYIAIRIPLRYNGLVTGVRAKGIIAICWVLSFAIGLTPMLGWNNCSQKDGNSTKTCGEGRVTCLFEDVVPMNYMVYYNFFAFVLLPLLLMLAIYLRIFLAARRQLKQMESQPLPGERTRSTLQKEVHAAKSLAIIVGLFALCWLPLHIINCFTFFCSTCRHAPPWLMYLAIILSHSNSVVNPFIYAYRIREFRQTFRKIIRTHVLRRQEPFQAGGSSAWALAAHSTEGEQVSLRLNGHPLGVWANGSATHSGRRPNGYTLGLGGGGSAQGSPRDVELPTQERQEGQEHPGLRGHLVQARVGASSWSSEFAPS

Columns and labels:
Adenosine A2 receptor = Adenosine A2 receptor (Rattus norvegicus, UniProt P29276+P30543); experiment: Inhibition of [3H]- NECA binding to adenosine receptor A2; assay type: protein assay
Adenosine receptor A2a = Adenosine receptor A2a (Rattus norvegicus, UniProt P30543); experiment: Inhibition of [3H]- NECA binding to adenosine receptor A2A

SMILES	Ki (Adenosine A2 receptor)	Ki (Adenosine receptor A2a)
C[C@H](Cc1ccccc1)Nc1ncnc2c1ncn2[C@@H]1O[C@H](CO)[C@@H](O)[C@H]1O [(R)-PIA]	0.22 µM	
C[C@@H](Cc1ccccc1)Nc1ncnc2c1ncn2[C@@H]1O[C@H](CO)[C@@H](O)[C@H]1O [(S)-PIA]		3 µM
